Converted amounts (≈) assume the structure as drawn. Peptide text beside a SMILES is read from it.
Legend:
ZIKV (PRVABC59 strain) = conditions: 2 h
ZIKV = test: Transmission electron microscopy of peptide-treated ZIKV; conditions: 200 μM peptide, 10 min treatment

CC[C@H](C)[C@H](NC(=O)[C@@H](NC(=O)CNC(=O)[C@H](CC(C)C)NC(=O)[C@H](Cc1ccccc1)NC(=O)[C@H](Cc1ccccc1)NC(=O)[C@H](CC(C)C)NC(=O)[C@H](CC(C)C)NC(=O)[C@H](CC(C)C)NC(=O)[C@H](CCSC)NC(=O)[C@@H](N)CO)[C@@H](C)O)C(=O)N[C@@H](CO)C(=O)N[C@@H](CC(C)C)C(=O)N[C@@H](CO)C(=O)N[C@@H](CC(C)C)C(=O)N[C@@H](CS)C(=O)N[C@@H](CCC(N)=O)C(=O)N[C@@H](CC(=O)O)C(=O)N[C@@H](CC(=O)O)C(=O)N[C@@H](CCC(N)=O)C(=O)N[C@@H](CCC(=O)O)C(=O)N[C@@H](CCCNC(=N)N)C(=O)N[C@@H](CS)C(=O)O [Yodha peptide] (H-SMLLLFFLGTISLSLCQDDQERC-OH; N-terminus and C-terminus assumed)
IC50 against ZIKV (ZIKV (PRVABC59 strain)): 52 µg/mL (≈ 19.7 µM) | morphology of ZIKV particles (electron microscopy) (ZIKV): loss of morphology and aggregation of virus particles

Reference: patent publication US11666630B2, “Polypeptides for managing viral infections” (priority 2016, dated 2023)
